Results: US7442702B2, “Prostaglandin agonists” (priority 1997, dated 2008)

Amino acid sequences for entries named in this document (tags omitted). A change or cut given only in a name is not applied to a line headed by its entry.
UniProt P43116: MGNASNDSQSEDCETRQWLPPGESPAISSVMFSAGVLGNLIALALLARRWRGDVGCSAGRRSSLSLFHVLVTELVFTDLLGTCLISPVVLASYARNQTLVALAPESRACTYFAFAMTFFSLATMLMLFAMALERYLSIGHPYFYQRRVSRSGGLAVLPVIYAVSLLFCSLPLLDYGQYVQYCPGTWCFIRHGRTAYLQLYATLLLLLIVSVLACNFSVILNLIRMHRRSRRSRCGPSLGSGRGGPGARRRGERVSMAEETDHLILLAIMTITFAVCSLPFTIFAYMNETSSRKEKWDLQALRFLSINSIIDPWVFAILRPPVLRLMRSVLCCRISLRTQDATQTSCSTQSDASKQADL

Target: T1, human EP2 receptor (Homo sapiens, UniProt P43116)
T1 construct: cDNAs representing the complete open reading frames of the human EP2 and EP4 receptors; expressed in transfected cells
Assay: Scatchard analysis of specific [3H]PGE2 binding in 293-S line stably overexpressing recombinant human EP2
Conditions: read-out: Kd for PGE2 (EP2), 293-S/EP2 line selected for compound screening, approximately 338,400 receptors per cell

Kd: 0.012 µM
Compound: CCCCC[C@H](O)/C=C/[C@H]1[C@H](O)CC(=O)[C@@H]1C/C=C\CCCC(=O)O [PGE2, Prostaglandin E2]
